Results as given in patent US20160324855A1, “COMBINATION OF A 6-OXO-1,6-DIHYDRO-PYRIDAZINE DERIVATIVE HAVING ANTI-CANCER ACTIVITY WITH GEFITINIB” (MERCK PATENT GMBH, priority 2014, published 2016).

Tests used:
[1] = system: human LU0858 lung tumor; experiment: Combination with EGFR inhibitor Gefitinib in a human lung cancer model, LU0858; assay type: in vivo; details: LU0858 patient-derived lung tumor (EGFR L858R, c-Met overexpressing) s.c. in female BaIB/c nude mice; oral, 5 days on and 2 days off; benzonitrile hydrochloride hydrate 100 mg/kg, gefitinib 150 mg/kg, monotherapy or combination; end of treatment
[2] = system: human LU1868 lung tumor; experiment: Combination with EGFR inhibitor Gefitinib in a human lung cancer model, LU1868; assay type: in vivo; details: LU1868 patient-derived lung tumor (EGFR L858R, T790M, c-Met expressing) s.c. in female BaIB/c nude mice; oral, 5 days on and 2 days off; benzonitrile hydrochloride hydrate 100 mg/kg, Gefitinib 150 mg/kg, monotherapy or combination; end of treatment

Compound | T/C value [1] [%] | T/C value [2] [%]
COc1cc2ncnc(Nc3ccc(F)c(Cl)c3)c2cc1OCCCN1CCOCC1 [Gefitinib] | 100 | 71
CN1CCC(COc2cnc(-c3cccc(Cn4nc(-c5cccc(C#N)c5)ccc4=O)c3)nc2)CC1.Cl.O [3-(1-{3-[5-(1-Methyl-piperidin-4-ylmethoxy)-pyrimidin-2-yl]-benzyl}-6-oxo-1,6-dihydro-pyridazin-3-yl)-benzonitrile hydrochloride hydrate] | 3 | 65
